The subject of the assay is phi 6 phage. Briefly: Inactivation of phi 6 in plasma with molybdenum X-ray radiation, plaque method. As to conditions: hydrated and lyophilized plasma, 1%, 353 kr; in words. Format: cell-based.

For `CCCCOP(=O)(OCCCC)OCCCC`, the “viral inactivation with molybdenum X-ray radiation on addition of organic solvent or detergent” value was “substantially enhanced”.

For the origin of these results see US5587490A, “Method of inactivation of viral and bacterial blood contaminants” (Credit Managers Association of California, priority 1993, dated 1996).
